The target of one experiment is PI3Kδ (Homo sapiens, UniProt O00329). The experiment can be described thus: ADP-Glo luminescent assay, enzymatic activity of PI3K delta. The format is biochemical. The note with it: ATP 25 μM; read-out: PI3K delta (nM) inhibitory activity (IC50). The procedure: Enzymatic activity of PI3K isoforms: Enzymatic activity of the class I PI3K isoforms in the presence of the compounds of Table 1 was measured using ADP-Glo luminescent assay against PI3Kα, PI3Kβ, PI3Kδ and PI3Kγ with ATP concentration at 25 μM. IPI-549 was used as the reference compound. The compounds would be tested from 1 or 10 μM, 3-fold dilution for 10 doses, in duplicate.
Compound preparation: Dilute a compound to 100× of the final desired highest inhibitor concentration in reaction by 100% DMSO. Transfer 100 μl of this compound dilution to a well in a 96-well plate and serially dilute it with DMSO for a total of 10 concentrations.
Kinase reaction: Prepare a solution of PI3K in 1× kinase buffer at 2-fold the final concentration of each reagent in the assay. Control wells contain 1× kinase buffer without enzyme. Prepare substrate solution of PIP2 substrate and ATP in 1× kinase reaction buffer at 2-fold of the final concentration. Add concentration substrate solution to each well to the final concentration. Cover the assay plate, shake to mix, and incubate at room temperature for 1 hour. Add 5 μl of ADP-Glo reagent to each well to stop the reaction. Mix briefly with a quick spin, shake slowly on the shaker for 120 min. Add 10 ul Kinase Detection Reagent to each well, shake 1 min, equilibrate for 30 min before reading on a luminescence plate reader. […]

Protein sequences, listed by entry. Tags and fused reporters are not part of them. Lines headed by an entry give the natural chain unless they say otherwise; changes in a name come on top.
UniProt O00329, whole entry, species assumed: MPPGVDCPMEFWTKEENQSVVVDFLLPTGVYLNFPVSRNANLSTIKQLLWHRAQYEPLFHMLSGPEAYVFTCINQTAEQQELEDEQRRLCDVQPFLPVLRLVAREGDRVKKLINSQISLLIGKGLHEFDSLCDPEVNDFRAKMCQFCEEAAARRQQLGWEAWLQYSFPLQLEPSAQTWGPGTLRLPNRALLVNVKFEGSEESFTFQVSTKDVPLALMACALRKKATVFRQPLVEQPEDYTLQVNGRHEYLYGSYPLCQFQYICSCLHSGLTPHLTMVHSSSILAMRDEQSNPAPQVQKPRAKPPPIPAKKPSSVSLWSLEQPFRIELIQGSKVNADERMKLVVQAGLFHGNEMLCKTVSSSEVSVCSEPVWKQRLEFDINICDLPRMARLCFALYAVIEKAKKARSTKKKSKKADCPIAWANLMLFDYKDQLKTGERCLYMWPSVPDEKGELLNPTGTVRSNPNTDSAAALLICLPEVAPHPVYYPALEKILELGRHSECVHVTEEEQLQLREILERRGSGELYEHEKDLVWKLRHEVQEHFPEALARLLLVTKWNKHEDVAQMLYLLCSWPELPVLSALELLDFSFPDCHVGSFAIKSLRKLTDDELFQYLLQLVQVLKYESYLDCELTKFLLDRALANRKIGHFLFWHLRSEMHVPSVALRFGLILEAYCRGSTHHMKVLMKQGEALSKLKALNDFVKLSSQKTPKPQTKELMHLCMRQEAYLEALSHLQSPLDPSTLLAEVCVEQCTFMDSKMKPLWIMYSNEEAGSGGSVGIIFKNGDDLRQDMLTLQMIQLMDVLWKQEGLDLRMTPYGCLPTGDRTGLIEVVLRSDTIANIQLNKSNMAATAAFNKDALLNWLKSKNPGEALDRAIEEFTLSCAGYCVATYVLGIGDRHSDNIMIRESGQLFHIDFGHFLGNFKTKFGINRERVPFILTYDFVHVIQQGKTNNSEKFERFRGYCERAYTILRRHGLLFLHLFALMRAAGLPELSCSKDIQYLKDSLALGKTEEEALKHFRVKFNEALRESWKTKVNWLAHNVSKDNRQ

A further experiment has as its target T1, PI3K delta (Homo sapiens, UniProt O00329).
T1 construct: endogenous in cells; host or cells: Raji
The experiment can be described thus: Raji cell assay: phosphorylation of AKT in anti-IgM stimulated Raji cells (AlphaLISA). The format is cell-based. The note with it: pAKT, read-out: PI3K delta Raji cell (nM) cellular activity (IC50). For orientation: In Alpha technology, singlet oxygen from a donor bead excites a nearby acceptor bead.

Structures are written as SMILES.

Regarding `C[C@H](NC(=O)c1c(N)nn2cccnc12)c1cc2cccc(C#Cc3cnn(C)c3)c2c(=O)n1-c1ccccc1` [IPI-549, reference compound], the IC50 at PI3Kδ was determined as 65 nM; on PI3K delta it was 133 nM.

Values taken from patent US11542262B2, “Phosphatidylinositol 3-kinase inhibitors” (NANJING ZHENGXIANG PHARMACEUTICALS CO., LTD., priority 2019, dated 2023).
